From patent US7432045B2 (priority 2003, dated 2008)

How the values were obtained:
HSV-1 KOS mutant hrR3 [1] = assay: LacZ+ virus (hrR3) entry assay with pre-adsorbed virus (entry block); assay type: cell-based; settings: for loss of antiviral activity relative to non-substituted peptide: norleucine for R55 and R56, Table 4
Protocol: LacZ^+ virus (hrR3) entry assay: Confluent Vero cell cultures in 96-well microtiter plates were switched to Hepes-buffered serum-free DMEM, cooled on ice to 4° C. for 30 min, and infected with hrR3 for 1 hour at 4° C. in 40 μL of medium. Unattached virus was removed by rinsing with ice-cold medium. Treatments with antiviral peptide SEQ ID NO:1, referred to as EB, or a control peptide which comprised the RRKK tetra-peptide (SEQ ID NO:16) attached to a scrambled version of the membrane transiting peptide RRKKLAALPLVLAAPLAVLA (SEQ ID NO:17) (referred to as EBX), or mock-treatments with peptide-free medium were carried out in serum-free DMEM as indicated. Virus entry was initiated by transferring cultures to 37° C. To inactivate any remaining extracellular virus, cultures were rinsed with PBS and exposed to low pH citrate buffer (40 mM citric acid, 10 mM KCl, 135 mM NaCl, pH 3.0, according to Highlander et al., J. Virol. 61:3356 (1987), for 1 min at 23° C. The citrate was rinsed off with PBS and cultures were maintained in serum-supplemented DMEM until they were fixed with 0.5% gluteraldehyde in 5×PBS for 30 min at 23° C., stained for β-galactosidase activity for 1 hour or overnight at 23° C. with X-gal (Fisher Biotech; BP1615-1) in 1×PBS containing […], 1.3 mM K4Fe(CN)6, and 1.3 mM K3Fe(CN)6, and scored for the presence of blue […] cells.
In these studies, the hrR3 virus was pre-adsorbed to cells for 1 hour at 4° C. before ice cold 25 μM EB or EBX were added in serum-free DMEM. After an additional 1 hour at 4° C., cultures were shifted to 37° C. to initiate virus entry. At 15 min intervals following the temperature shift, any virus remaining outside the cells was inactivated by washing the cultures with low pH citrate buffer. Cultures were then rinsed and returned to peptide-free serum-supplemented DMEM until they were fixed and stained for β-galactosidase 8 hours after the temperature shift.
(§1) Two assays were used to assess the ability of the TAT peptides to inhibit infection of Vero cells with the hrR3 virus. In both assays, the virus was preadsorbed to cells at 4° C. and entry was initiated in the presence of peptide by shifting the cultures to a permissive temperature (30-37° C.). One hour later, the peptide was rinsed off. The entry blocking activity was measured in half of the cultures, in which any extracellular virus remaining after the peptide treatment was inactivated with low pH citrate buffer. The rest of the cultures were exposed to PBS instead of citrate buffer and used to measure virus inactivation. Virus inactivation depended on persistent effects of the peptide lasting for a period of eight hours. At the end of that period, all cultures were fixed and infected cells were detected by staining with X-gal.
(§2) Virus (m.o.i.=0.025) was preadsorbed to Vero cells for 1 h at 4° C. before cultures were exposed to TAT-C (FIG. 15A), bTAT-9X (FIG. 15B), or n50,51TAT-C (FIGS. 15C, 15D) for 1 h at 33 (FIGS. 15A, 15B), 31 (FIG. 15C), or 37° C. (FIG. 15D). […] Inhibition of entry was measured in the citrate-treated cultures, in which any remaining external virus was inactivated immediately following exposure to peptide (●). Persistent virus inactivation lasting, at least in part, for the 8 h period following exposure to peptide, was measured in the PBS-treated cultures (◯). The IC50s measured in these experiments are included in Table 5.

HSV-1 KOS mutant hrR3 [2] = assay: Inactivation of pre-adsorbed virus (virus inactivation); assay type: cell-based
Protocol: as §1, §2

hrR3 virions = assay: Inactivation of virions in solution; assay type: cell-based, HSV-1; settings: for IC50: 37° C.
Protocol: Inactivation of virions: To assess the ability of peptides to inactivate virions, 3-4×10^6 pfu/mL of virus was mixed on ice with peptide in serum-free DMEM and incubated for 1 h at 4 or 37° C. Aliquots (10 μL) were diluted 1000-fold into peptide-free serum-supplemented DMEM at 23° C. and 50 μL aliquots were assayed in triplicate for infectivity in Vero cell cultures (dilution assay). Alternatively, 10 μL aliquots were diluted into 1 mL of ice-cold peptide-free serum-supplemented DMEM and the virus was pelleted as described above (centrifugation assay). Viral pellets were then resuspended in 250 μL serum-supplemented DMEM and 50 μL aliquots were assayed in triplicate for infectivity in Vero cell cultures.
Some of the virus diluted without the addition of NaCl was pelleted immediately (Control), while the rest of the diluted virus was stored at 4° C. and pelleted 19 h later. The virus was pelleted and assayed for infectivity as described in Example 1.

cornea = assay: In vivo peptide toxicity, cornea; parameters: species or system BALB/C mice; settings: mouse
Protocol: (i) Cornea: Four-6-week-old female BALB/C mice (Harlan Sprague Dawley, Indianapolis, Ind.) were anesthetized by halothane inhalation (3-5%). A 2.0 μL drop of serum-free 5×DMEM solution containing 6.1 mM EB, 6.1 mM EBX, 7.5 mM TAT-C, 7.5 mM n50,51 TAT-C, 7.5 mM TAT-Cd, or 11.2 mM bHOMd or serum-free DMEM only (control) was then placed on the cornea and the mice were returned to their cages. Each group consisted of 5 mice, except for 11.2 mM bHOMd, and 7.5 mM TAT-Cd, which consisted of 4 mice. Only the right eye in each mouse received the peptide. Treatments were given 4 times per day at least 2 hrs apart for 7 days. […] Damage to the corneal epithelium was assessed by staining with 1.0% […] and examination under a microscope with blue light. Blepharitis was scored: 1+ for noticeable puffy eyelids, 2+ for puffy eyelids with moderate crusting, 3+ for eye 50% swollen shut with severe crusting, and 4+ for eye totally swollen and crusted shut (Brandt et al., 1992). Punctate keratopathy, dendrite ulceration, and geographic ulceration were scored: 1+ for <25% of the cornea involved, 2+ for 25-50% involved, 3+ for 50-75% involved, and 4+ for >75% involved. The mean disease score for each group of mice on each day was calculated by the sum of disease scores in each group on each day divided by the numbers of mice in that group. […]

HSV-1 KOS mutant hrR3 [3] = test system: HSV-1 KOS mutant hrR3
[4] = test system: Vero, HeLa, CV-1PD, TM-1, DP-9, CEMx174, NIKS, W12E cells; assay: MTS assay, eight cell lines
[5] = 33° C., read-out: Entry Block 33° C. IC50
[6] = 37° C., read-out: Entry Block 37° C. IC50
[7] = 33° C., read-out: Inactivation of Pre-Adsorbed Virus 33° C. IC50
[8] = 37° C., read-out: Inactivation of Pre-Adsorbed Virus 37° C. IC50

Row | Compound | decrease of inhibition of entry (increase in IC50s) between 31 and 37° C. (HSV-1 KOS mutant hrR3 [1]; 31 vs 37° C.) [fold] | IC50 (HSV-1 KOS mutant hrR3 [1]; 31° C., read-out: inhibition of entry IC50) [µM] | IC50 (HSV-1 KOS mutant hrR3 [1]; [5]) [µM] | IC50 (HSV-1 KOS mutant hrR3 [1]; 37° C., FIG. 15D, read-out: inhibition of entry IC50) [µM] | IC50 (HSV-1 KOS mutant hrR3 [1]; [6]) [µM] | IC50 (HSV-1 KOS mutant hrR3 [2]; [7]) [µM] | IC50 (HSV-1 KOS mutant hrR3 [2]; [8]) [µM] | IC50 (HSV-1 KOS mutant hrR3 [2]; both temperatures (31° C. and 37° C.), read-out: virus inactivation IC50s) [µM] | IC50 (HSV-1 KOS mutant hrR3 [2]; various temperatures, FIG. 16B, read-out: virus inactivation IC50s at various temperatures) [µM] | IC50 (hrR3 virions) [µM] | corneal pathology (cornea) | entry at 32° C. blocked (HSV-1 KOS mutant hrR3 [3]; 10 μM peptide, 1 h at 32° C.) | virus that eventually entered cells after peptide removal at 37° C. (HSV-1 KOS mutant hrR3 [3]; 100 μM peptide) [%] | entry at 32° C. inhibited (HSV-1 KOS mutant hrR3 [3]; 100 μM peptide, 1 h at 32° C.) | reversibility of the inhibitory effect after removal of peptide (HSV-1 KOS mutant hrR3 [3]; n50,51TAT-C 10 μM, TAT-C 10 or 100 μM) | loss of antiviral activity relative to non-substituted peptide (HSV-1 KOS mutant hrR3 [1]) | concentration with no effect on virions (hrR3 virions; 1 h, 4 to 37° C., serum-supplemented DMEM) [µM] | cytotoxicity to cells (MTS), overall [4]
1 | CCCC[C@H](NC(=O)[C@H](CCCNC(=N)N)NC(=O)CN)C(=O)N[C@@H](CCCC)C(=O)N[C@@H](CCCNC(=N)N)C(=O)N[C@@H](CCCNC(=N)N)C(=O)N[C@@H](CCC(N)=O)C(=O)N[C@@H](CCCNC(=N)N)C(=O)N[C@@H](CCCNC(=N)N)C(=O)N[C@@H](CCCNC(=N)N)C(=O)N[C@@H](CS)C(=O)O [n50,51TAT-C, NH2-GRnLnLRRQRRRC-COOH] | ~50 | 1.3 | 5.9 | 48 | 41 | 215 | 210 | > 200 | ~200 | > 600 | no evidence of corneal pathology | about 60% | 75 | about 90% | fully reversible | – | – | –
2 | CCCC[C@H](NC(=O)[C@H](CCCC)NC(=O)[C@H](CCC(N)=O)NC(=O)[C@H](CCCNC(=N)N)NC(=O)[C@H](CCCNC(=N)N)NC(=O)[C@H](CCCCN)NC(=O)[C@H](CCCCN)NC(=O)[C@H](CCCNC(=N)N)NC(=O)CN)C(=O)N[C@@H](CCCNC(=N)N)C(=O)N[C@@H](CS)C(N)=O [n55,56TAT-C, NH2-GRKKRRQnLnLRC-amide] | – | – | 37 | – | 49 | 240 | 160 | – | – | > 600 | – | – | – | – | – | > 90% | > 200 | generally not cytotoxic
3 | CCCC[C@@H](NC(=O)[C@@H](CCCC)NC(=O)[C@@H](CCC(N)=O)NC(=O)[C@@H](CCCNC(=N)N)NC(=O)[C@@H](CCCNC(=N)N)NC(=O)[C@@H](CCCCN)NC(=O)[C@@H](CCCCN)NC(=O)[C@@H](CCCNC(=N)N)NC(=O)CN)C(=O)N[C@H](CCCNC(=N)N)C(=O)N[C@H](CS)C(N)=O [n55,56TAT-Cd, NH2-GRKKRRQnLnLRC-amide] | – | – | 3.9 | – | 5.3 | 16 | 13 | – | – | 250 | – | – | – | – | – | about half | – | –
